Experiment [1] concerns the target catalytic domain (JH1, amino acids 826-1132) of human JAK2 (Homo sapiens, UniProt O60674). The experiment in a line: JAK2 LanthaScreen JH1 Binding Assay. The conditions noted are these: read-out: JH1 BIND; JAK2 JH1 (1.5 nM), 50 nM fluorescent JAK2-JH1 tracer, 2 hours at 25° C. As for the experimental part:
Example A. JAK2 LanthaScreen JH1 Binding Assay
JAK2 JH1 binding assay utilizes catalytic domain (JH1, amino acids 826-1132) of human JAK2 expressed as N-terminal FLAG-tagged, biotinylated protein in a baculovirus expression system (Carna Biosciences, Product #08-445-20N). The assay was conducted in black 384-well polystyrene plates in a final reaction volume of 20 μL. JAK2 JH1 (1.5 nM) was incubated with compounds (100 nL serially diluted in DMSO) in the presence of 50 nM fluorescent JAK2-JH1 tracer and 0.5 nM Streptavidin-Tb cryptate (Cisbio Part #610SATLB) in assay buffer (50 mM Tris, pH=7.5, 10 mM MgCl2, 0.01% Brij-35, 0.1% BSA, 1 mM EGTA, 5% Glycerol and 5 mM DTT). Non-specific binding was accessed in the presence of 2 mM ATP. After incubation for 2 hours at 25° C., LanthaScreen signals were read on a PHERAstar FS plate reader (BMG LABTECH). Data was analyzed with IDBS XLfit and GraphPad Prism 5.0 software using a four parameter dose response curve to determine IC50 for each compound.

Amino acid sequences for entries named in this document (tags omitted). A change or cut given only in a name is not applied to a line headed by its entry. Residues count along the entry.
UniProt O60674, 826-1132 limits assumed: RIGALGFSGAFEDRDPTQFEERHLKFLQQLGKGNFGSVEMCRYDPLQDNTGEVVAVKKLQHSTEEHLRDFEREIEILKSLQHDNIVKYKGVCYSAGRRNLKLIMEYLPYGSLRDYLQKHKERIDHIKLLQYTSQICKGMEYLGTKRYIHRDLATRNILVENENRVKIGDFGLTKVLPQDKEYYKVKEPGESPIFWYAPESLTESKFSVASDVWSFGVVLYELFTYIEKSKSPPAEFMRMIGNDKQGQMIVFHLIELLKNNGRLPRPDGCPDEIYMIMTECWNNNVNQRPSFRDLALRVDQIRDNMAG
UniProt O60674, 536-812 W659A/W777A/F794H limits assumed: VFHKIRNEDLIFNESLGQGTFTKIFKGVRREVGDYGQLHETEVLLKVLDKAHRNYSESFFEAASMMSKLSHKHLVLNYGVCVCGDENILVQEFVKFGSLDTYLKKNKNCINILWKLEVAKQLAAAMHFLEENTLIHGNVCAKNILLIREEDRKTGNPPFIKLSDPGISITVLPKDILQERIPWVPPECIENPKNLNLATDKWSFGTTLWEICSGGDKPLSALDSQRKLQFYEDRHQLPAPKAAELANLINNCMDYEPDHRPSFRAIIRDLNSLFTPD
UniProt O60674, 536-812 V617F/W659A/W777A/F794H limits assumed: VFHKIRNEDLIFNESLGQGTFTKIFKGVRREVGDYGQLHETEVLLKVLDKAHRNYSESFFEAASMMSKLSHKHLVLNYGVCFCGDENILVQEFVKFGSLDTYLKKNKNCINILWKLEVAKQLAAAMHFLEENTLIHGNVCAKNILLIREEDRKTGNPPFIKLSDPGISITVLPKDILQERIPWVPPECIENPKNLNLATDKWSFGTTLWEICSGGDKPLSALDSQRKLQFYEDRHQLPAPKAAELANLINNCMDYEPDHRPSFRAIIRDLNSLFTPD

The target of experiment [2] is pseudo-kinase domain (JH2, amino-acids 536-812 with 3 surface mutations W659A, W777A, F794H) of human Wild Type JAK2 (Homo sapiens, UniProt O60674, F794H/W659A/W777A). Nature of the experiment: JAK2 LanthaScreen JH2-WT Binding Assay. To be noted: read-out: JH2 BIND WT; JAK2 JH2-WT (0.145 nM), 50 nM Fluorescent JAK2-JH2 Tracer, 1 hour at 25° C. As for the experimental part: Example B. JAK2 LanthaScreen JH2-WT Binding Assay
(§1) JAK2 JH2-WT binding assay utilizes pseudo-kinase domain (JH2, amino-acids 536-812 with 3 surface mutations W659A, W777A, F794H) of human Wild Type JAK2 expressed as C-terminal His-Avi-tagged, biotinylated protein in a baculovirus expression system (BPS Bioscience, Catalog #79463). The assay was conducted in black 384-well polystyrene plates in a final reaction volume of 20 μL. JAK2 JH2-WT (0.145 nM) was incubated with compounds (100 nL serially diluted in DMSO) in the presence of 50 nM Fluorescent JAK2-JH2 Tracer (MedChem Express Catalog #HY-102055) and 0.25 nM Streptavidin-Tb cryptate (Cisbio Part #610SATLB) in assay buffer (50 mM Tris, pH=7.5, 10 mM MgCl2, 0.01% Brij-35, 0.1% BSA, 1 mM EGTA, 5% Glycerol and 5 mM DTT). Non-specific binding was accessed in the presence of 2 mM ATP. After incubation for 1 hour at 25° C., LanthaScreen signals were read on a PHERAstar FS plate reader (BMG LABTECH). Data was analyzed with IDBS XLfit and GraphPad Prism 5.0 software using a four parameter dose response curve to determine IC50 for each compound.
For orientation: TR-FRET usually uses a lanthanide donor and a delayed reading to cut background.

Experiment [3] addresses pseudo-kinase domain (JH2, amino-acids 536-812 with 3 surface mutations W659A, W777A, F794H) of human V617F mutant JAK2 (Homo sapiens, UniProt O60674, F794H/V617F/W659A/W777A). Nature of the experiment: JAK2 LanthaScreen JH2-V617F Binding Assay. The conditions noted are these: read-out: JH2 BIND V617F; JAK2 JH2-V617F (0.26 nM), 50 nM Fluorescent JAK2-JH2 Tracer, 1 hour at 25° C. As for the experimental part:
Example C. JAK2 LanthaScreen JH2-V617F Binding Assay
as §1, with “JH2-V617F” for “JH2-WT”, “V617F mutant” for “Wild Type”, “#79498).” for “#79463).”, “JH2-V617F (0.26” for “JH2-WT (0.145”

Some results are limits rather than exact numbers.

On to `COC(=O)N1C2CCC1CC(n1c(=O)n(C)c3cnc4[nH]c(-c5cnn(C)c5)c(-c5ccc6c(cnn6C)c5)c4c31)C2` (stereo not drawn), for which the IC50 was over 1 µM in experiment [1], under 0.01 µM in experiment [2] and under 0.01 µM in experiment [3].

Values taken from US11780840B2 (Incyte Corporation, priority 2020, dated 2023).
